Tests used:
[1] = Solubility of metal amidinate precursor in a solvent (terpene or dodecane)
Procedure: [drawing 8] was dissolved in alloocimene.
Examples 1 and 2 were repeated except that dodecane was used as a solvent in place of alloocimene or farnesenes.
[drawing 9] is dissolved in mixed isomers of farnesene.
[drawing 10] is dissolved in mixed isomers of farnesenes.
[drawing 11] is dissolved in mixed isomers of farnesenes.
[drawing 12] is dissolved in alloocimene.
[drawing 13] is dissolved in mixed isomers of farnesene.

[2] = Thermogravimetric analysis (TGA), evaporation into flowing nitrogen; settings: 10 to 20 milligrams, flowing nitrogen gas

bis(N,N′-di-tert-butylacetamidinato)nickel(II)
solubility ([1]; in alloocimene): over 40 weight percent | volume concentration of the solution ([1]; in alloocimene, from solution density 0.97 g cm^-3): over 1.0 molar | solubility ([1]; in dodecane (saturated hydrocarbon, comparative)): around 0.25 molar | solubility ([1]; in mixed isomers of farnesene): over 37 weight percent | volume concentration of the solution ([1]; in mixed isomers of farnesene, from solution density 0.96 g cm^-3): over 0.9 molar | T1/2, temperature by which one half of the mass is lost [2]: 197 °C

From US9790378B2, “Vapor source using solutions of precursors in terpenes” (President and Fellows of Harvard College, priority 2010, dated 2017)
